Assay results: US20250250357A1

Tests used:
[1] = molecular target: monkey MSLN full-length protein expressed on HEK293T cells (HEK293T-monkey MSLN) (monkey); test: FACS on HEK293T-monkey MSLN cells
[2] = molecular target: monkey MSLN full-length protein (NCBI: XP_028696439.1) on HEK293T cells (monkey); test: FACS on HEK293T-monkey MSLN cells; antibody 0.00128 nM
[3] = molecular target: monkey MSLN full-length protein (NCBI: XP_028696439.1) on HEK293T cells (monkey); test: FACS on HEK293T-monkey MSLN cells; antibody 0.8 nM
[4] = molecular target: monkey MSLN full-length protein (NCBI: XP_028696439.1) on HEK293T cells (monkey); test: FACS on HEK293T-monkey MSLN cells; antibody 4 nM
[5] = molecular target: monkey MSLN full-length protein (NCBI: XP_028696439.1) on HEK293T cells (monkey); test: FACS on HEK293T-monkey MSLN cells; antibody 20 nM
[6] = molecular target: monkey MSLN full-length protein (NCBI: XP_028696439.1) on HEK293T cells (monkey); test: FACS on HEK293T-monkey MSLN cells; antibody 100 nM
[7] = molecular target: monkey MSLN full-length protein (NCBI: XP_028696439.1) on HEK293T cells (monkey); test: FACS on HEK293T-monkey MSLN cells; antibody 0.0064 nM
[8] = molecular target: monkey MSLN full-length protein (NCBI: XP_028696439.1) on HEK293T cells (monkey); test: FACS on HEK293T-monkey MSLN cells; antibody 0.032 nM
[9] = molecular target: monkey MSLN full-length protein (NCBI: XP_028696439.1) on HEK293T cells (monkey); test: FACS on HEK293T-monkey MSLN cells; antibody […]

**Q.** For Tab142 (Amatuximab) (antibody), which EC50 [1] is on record?
**A.** 1 nM

**Q.** What about the Maximum mean fluorescence intensity [1] of the same substance?
**A.** 39200

**Q.** And the FACS fluorescence intensity [2]?
**A.** 98

**Q.** What about the FACS fluorescence intensity [3] of the same substance?
**A.** 1680

**Q.** What about the FACS fluorescence intensity [4] of the same substance?
**A.** 3610

**Q.** And the FACS fluorescence intensity [5]?
**A.** 3650

**Q.** And the FACS fluorescence intensity [6]?
**A.** 3720

**Q.** What about the FACS fluorescence intensity [7] of the same substance?
**A.** 115

**Q.** What about the FACS fluorescence intensity [8] of the same substance?
**A.** 192

**Q.** And the FACS fluorescence intensity [9]?
**A.** 503
